In PubChem BioAssay AID693 (University of Pittsburgh Molecular Library Screening Center, 2007) one finds inhibition data, which are given here for 33 compounds.

Protein sequences, listed by entry. Tags and fused reporters are not part of them.
UniProt P53350, whole entry, looked up: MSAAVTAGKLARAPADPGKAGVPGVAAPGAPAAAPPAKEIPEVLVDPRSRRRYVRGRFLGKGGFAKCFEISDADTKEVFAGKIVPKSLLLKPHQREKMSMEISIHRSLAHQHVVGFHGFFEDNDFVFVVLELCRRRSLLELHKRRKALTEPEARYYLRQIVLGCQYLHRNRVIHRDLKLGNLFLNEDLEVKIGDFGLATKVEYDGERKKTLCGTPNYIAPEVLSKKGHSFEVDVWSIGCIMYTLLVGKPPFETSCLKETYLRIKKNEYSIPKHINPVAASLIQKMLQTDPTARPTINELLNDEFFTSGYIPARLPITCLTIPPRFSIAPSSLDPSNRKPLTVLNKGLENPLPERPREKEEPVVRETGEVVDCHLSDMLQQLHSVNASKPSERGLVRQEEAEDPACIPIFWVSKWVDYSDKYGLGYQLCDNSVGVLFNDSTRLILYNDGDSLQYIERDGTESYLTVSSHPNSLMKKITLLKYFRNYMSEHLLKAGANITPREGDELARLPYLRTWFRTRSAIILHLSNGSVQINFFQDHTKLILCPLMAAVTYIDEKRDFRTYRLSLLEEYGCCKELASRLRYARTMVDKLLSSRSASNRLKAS

The list shows a part of the results, in another mix than the full data. The source made the active and inactive calls. No stated cut-off is given here; in the data, active means inhibition above about 34% (passing the limit was not always enough); inactive means the rest.

The test deals with Serine/threonine-protein kinase PLK1 (Homo sapiens) (UniProt P53350). Kind of test: blockers of phosphopeptide binding to Plk1 PBD – biochemical, fluorescence polarization, primary screen (AID 693). Particulars: active compounds read high,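 tested at about 20 µM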.
For `CC(=O)N1C2C3N(C(C)=O)C1C1N(C(C)=O)C(C(N1C(C)=O)N3C(C)=O)N2C(C)=O`, the inhibition was inactive: 2.66%.
Consider `O=[N+]([O-])c1cccc2n[nH]nc12`, for which the inhibition is inactive: -8.71%.
Then `CCc1nc2c(n1)c1c(non1O)c1c2no[n+]1[O-]`, with inactive: 27.1%; and `CC1CCN(C(=O)Oc2c(Cl)cc(Cl)c3cccnc23)CC1`, with inactive: 14.8%.
Take `CCOP(=O)(Nc1ccccc1)OCC`: the inhibition was inactive: 13.6%.
Regarding `CN1CCCC(OC(=O)C(c2ccccc2)c2ccccc2)C1` (stereo not drawn), the inhibition is inactive: 8.39%.
On to `CC(C)CC(=O)NC(Sc1ccc(Cl)cc1)C(Cl)(Cl)Cl` (stereo not drawn), for which the inhibition is inactive: -2.08%.
Consider `Cc1c2non([O-])c-2c(C)[n+](=O)[n+]1[O-]`, for which the inhibition was inactive: 1.32%.
In the case of `Oc1ccccc1CNc1ccccn1`, the inhibition was inactive: -20.8%.
Take `O=P1(Nc2nc3ccc(Cl)cc3s2)COc2ccccc2O1` (stereo not drawn): the inhibition is inactive: 6.58%.
`CCOC(=O)NC(Sc1ccccc1)C(Cl)(Cl)Cl` (stereo not drawn): the inhibition was inactive: 6.5%.
For `COC(=O)c1cc2c(s1)N=C(c1ccccc1)N(C)P2(=O)N1CCOCC1` (stereo not drawn), the inhibition is inactive: -24.6%.
As to `CCC(=O)N1C2C3N(C(=O)CC)C1C1N(C(=O)CC)C(C(N1C(=O)CC)N3C(=O)CC)N2C(=O)CC`, the inhibition is inactive: -18.9%.
`O=C(OC1CN2CCC1CC2)c1cccc(Cl)c1` (stereo not drawn): the inhibition was inactive: 27.5%.
`c1nnnn1CCn1cnnn1`: the inhibition was inactive: 10.5%.
Then `O=P(Nc1nccs1)(c1ccccc1)c1ccccc1`, with inactive: -5.69%; and `Clc1n[nH]nc1-c1nn[nH][15n]1`, with inactive: -14.1%.
With `O=P1(Nc2ccccn2)COc2ccccc2OC1`, the inhibition was inactive: -9.5%.
As to `CC1(CBr)Cn2c(nc3ccccc3c2=O)S1` (stereo not drawn), the inhibition was inactive: 16.5%.
On to `Cc1nn(-c2ccccc2)c2c1P(=O)(N1CCOCC1)N(C)C(c1ccccc1)=N2` (stereo not drawn), for which the inhibition was inactive: 7.13%.
For `Cc1ccc(OCC(=O)OC2CN3CCC2CC3)cc1` (stereo not drawn), the inhibition was inactive: -6.02%.
As for `O=P1(Nc2ccc(Br)cn2)COc2ccccc2OC1`, the inhibition was inactive: -22.5%.
Take `O=P1(Nc2ncccn2)COc2ccccc2OC1`: the inhibition is inactive: -29%.
As for `CCOP1(=S)c2c(C)nn(CCC#N)c2N=C(c2ccccc2F)N1C` (stereo not drawn), the inhibition was inactive: -16.2%.
For `O=[N+]([O-])c1ccc2c(c1)nnn2O`, the inhibition is inactive: 13.2%.
On to `CCOP1(=S)c2c(C)nn(CCC#N)c2N=C(c2ccc(F)cc2)N1C` (stereo not drawn), for which the inhibition is inactive: -22.2%.
The figure for `Cc1cccc(OCC(=O)OC2CN3CCC2CC3)c1` (stereo not drawn) is inactive: 0.41%; for `O=C(OC1CN2CCC1CC2)C12CC3CC(CC(C3)C1)C2` (stereo not drawn) it is inactive: -4.07%.
As for `CCN(CC)C(=S)SC(NC=O)C(Cl)(Cl)Cl` (stereo not drawn), the inhibition was inactive: 3.08%.
Regarding `ClCCSc1nnc(-c2cccnc2)o1`, the inhibition was inactive: 34.3%.
Consider `O=C(COc1ccccc1)OC1CN2CCC1CC2` (stereo not drawn), for which the inhibition was inactive: -8.11%.
With `COP1(=S)c2c(C)nn(CCC#N)c2N=C(c2ccc(F)cc2)N1C` (stereo not drawn), the inhibition was inactive: -18%.
Turning to `CCC(C)N(CC(C)C)C(=S)SC(NC(C)=O)C(Cl)(Cl)Cl` (stereo not drawn), the inhibition is inactive: -16.4%.
